Consider 1 compound from patent US4130645A (priority 1978, dated 1978).

Data set [1] deals with barley. Kind of data set: Phytotoxicity to barley in barley powdery mildew test. The following applies: 500 ppm.
Data set [2] has as its system apple. Nature of the data set: Phytotoxicity to apple in apple powdery mildew test. The following applies: 500 ppm.

Regarding `O=[N+]([O-])Nc1c(Cl)cc([N+](=O)[O-])cc1Cl`, the phytotoxicity result in data set [1] and in data set [2] was “M” each time.
